According to PubChem BioAssay AID521 (Sanford-Burnham Center for Chemical Genomics, 2006):
Only a part is listed here, and it is no random draw. Some of these compounds have results that are not shown, active ones among them. The source made the active and inactive calls. Cut-off read from the data, not from the text of the source: active = inhibition above about 50%; inconclusive = no clear call, values can overlap the other calls; inactive = below that.

Chains of the proteins cited; added tags and fusions are not shown.
UniProt P35236, whole entry: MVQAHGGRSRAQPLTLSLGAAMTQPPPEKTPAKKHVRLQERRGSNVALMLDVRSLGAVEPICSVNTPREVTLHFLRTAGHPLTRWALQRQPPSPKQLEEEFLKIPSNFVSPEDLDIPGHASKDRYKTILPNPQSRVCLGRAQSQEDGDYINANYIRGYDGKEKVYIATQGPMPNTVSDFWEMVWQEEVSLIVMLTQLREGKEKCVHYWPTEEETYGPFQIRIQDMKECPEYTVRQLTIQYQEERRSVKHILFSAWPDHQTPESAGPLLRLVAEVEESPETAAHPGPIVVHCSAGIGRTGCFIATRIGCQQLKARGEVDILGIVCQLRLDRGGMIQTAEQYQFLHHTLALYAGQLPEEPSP

Each compound was assayed against Tyrosine-protein phosphatase non-receptor type 7 (Homo sapiens) (UniProt P35236) (assay: HePTP tyrosine phosphatase activity blockers – biochemical, absorbance, leukemia target, primary screen (AID 521;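 note: plate controls were vehicle for no effect and reference inhibitor for full effect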)). Settings: recombinant HePTP phosphatase activity, OD absorbance; at 20 µM; active compounds read high.

SMILES	inhibition
O=C(OC1CN2CCC1CC2)C(CO)(c1ccccc1)c1ccccc1 (stereo not drawn)	inactive: 7.4%
CN(C)c1cccc(C(=O)NCC2(N(C)C)CCCCC2)c1	inactive: 6.1%
COc1ccc(OC)c(C=C(C#N)C#N)c1	inactive: 3.2%
